## AlphaSeq binding of Ab-95 light chain variants to a spike HR2 peptide

Target peptide (SARS-CoV-2 spike, HR2 region): PDVDLGDISGINAS

Parent: Ab-95, a human scFv built as VH, three GGGGS repeats, VL. Only the CDRs of the light chain vary.
VH: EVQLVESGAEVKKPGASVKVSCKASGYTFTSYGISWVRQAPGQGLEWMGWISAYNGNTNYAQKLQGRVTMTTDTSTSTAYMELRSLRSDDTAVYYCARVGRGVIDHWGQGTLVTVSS
VL: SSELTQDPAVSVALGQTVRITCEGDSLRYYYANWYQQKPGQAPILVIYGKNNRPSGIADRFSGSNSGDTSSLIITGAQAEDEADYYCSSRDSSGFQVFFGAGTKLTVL

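Phage display of a naive human antibody library on the peptide gave the parent. AAYL52 was designed without a model: most single CDR substitutions and a random sample of double and triple ones. The assay is AlphaSeq: two haploid yeast populations carry antibody and antigen on their surface. The frequency of each diploid, read from paired DNA barcodes, reflects how well the two displayed proteins bind. A regression on co-assayed BCL2-family reference pairs converts the normalised counts of each replicate to an apparent Kd. There are three technical replicates.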

Each variant is given by its three light chain CDRs, as the data file delimits them; those of the parent are EGDSLRYYYAN, GKNNRPS, SSRDSSGFQVF.
Every variant below is changed at G49 of the VL (sequential numbering).
Values are apparent Kd, the geometric mean of the replicates that gave a signal; lower means stronger binding.
"not detected" marks a missing value. The strain was present, yet no cells mated with the target were sequenced in any replicate, which points to weak or no binding.

| CDR-L1 | CDR-L2 | CDR-L3 | apparent Kd | detected |
|---|---|---|---|---|
| EHDSLRYYYAN | NKKNRPS | SSRDSSGFQVF | 7.9 µM | 1/3 |
| EGPSLRYYYAN | QKNNRPS | SSLDSSGFQVF | not detected | 0/3 |
| EGDSLRWYYAN | SKNNRPS | SSRDSTGFQVF | 3.3 µM | 2/3 |
| EGDSLRYYYAN | WKNNRPS | SCRDSSGFEVF | not detected | 0/3 |
| EGDSLRYYYAN | WKNNLPS | SSRDSSGYQVF | 4.8 µM | 2/3 |
| DGDSLRYYYAN | LKVNRPS | SSRDSSGFQVF | 3.2 µM | 2/3 |
| EGDSLRYYYAN | EKNNHPS | KSRDSSGFQVF | not detected | 0/3 |
| EGDSLRYYYAN | AKNNRPS | SSRDSSGFQVF | 980 nM | 3/3 |
| WGDSLRYYYAN | IKNNRPS | SSRDSSGFQVF | 14 µM | 2/3 |
| EEDSLRYYYAN | DKNNRPF | SSRDSSGFQVF | not detected | 0/3 |
| EGDSLRYYYAK | KKNNRPS | SSRDSSGFQVF | not detected | 0/3 |
| EGSSLRYYYAN | MKNNRPS | SSRDMSGFQVF | 12 µM | 2/3 |
| EGDSLMYYYAN | SKNNRPS | SSLDSSGFQVF | 14 µM | 1/3 |
| EGSSLRYYYAN | RKNNRPS | SSRDSSGFQVF | 7.1 µM | 3/3 |
| EFDSLRYYYAN | PKNNRPS | SSRDSSGFQVF | not detected | 0/3 |
| EGDSLRYYYAN | YKNNRPS | SSRDSSGPQVF | not detected | 0/3 |
| EGDSLRYYYAN | AKENRPS | SSRDSSGFGVF | 38 µM | 3/3 |
| EGDCLRYYYAN | SKNNRPS | SSRDSSGFQQF | 74 µM | 1/3 |
| EGDSLRYYYAN | AKINRPS | SSRDSKGFQVF | not detected | 0/3 |
| EGDSLRYYYAN | YKNNYPS | SYRDSSGFQVF | not detected | 0/3 |
| EGWSLRYYYHN | RKNNRPS | SSRDSSGFQVF | 33 µM | 2/3 |
| EGDSLRNYYAN | WKNNRPS | SSADSSGFQVF | 12 µM | 2/3 |
| ESDSLRYYYAN | DKNNRPS | SSRDSSGFHVF | 1.2 µM | 3/3 |
| EGDSLRYYYAN | NKNNRPS | SSRDSSGFQVH | 890 nM | 3/3 |
| EGDSLRYYYAN | IKNNRPS | SSDTSSGFQVF | 22 µM | 1/3 |
| EGDSTRYYYAN | QKNNRPS | SSRDSSIFQVF | 12 µM | 1/3 |
| EGDSLRYYYAN | PKNNRPS | SSYDSSGFQWF | 920 nM | 1/3 |
| EGDSLRYYYAN | IPNNRNS | SSRDSSGFQVF | 5.5 µM | 1/3 |
| EGDSLRYYQAN | PKNNRPS | VSRDSSGFQVF | 1.7 µM | 1/3 |
| EGDSLHYYYAN | WKNNRPS | SSRDSSFFQVF | not detected | 0/3 |
| EGDSLRYYYAN | VKNNRPS | SHGDSSGFQVF | 6.1 µM | 1/3 |
| FGDSLRYYYAN | KKNNDPS | SSRDSSGFQVF | 81 µM | 2/3 |
| EGDSLRYYYAN | CKNNRNS | SSRKSSGFQVF | not detected | 0/3 |
| EGDSLTYYYAN | RKNNRPS | SSRDSSGDQVF | 100 µM | 1/3 |
| RGDSLRYYYAN | TKNNRPS | SSRDSSGFQVV | 4.2 µM | 2/3 |
| PGDSLRYYYAN | SKNNRPS | SSRDSSGFQVM | 13 µM | 2/3 |
| EGDSLRYYYAN | FKNNRPS | SWRDSSGIQVF | not detected | 0/3 |
| EGDSLRYYPAN | TKNNRPS | SSADSSGFQVF | 170 nM | 1/3 |
| EGDSLRGYYAN | TKNNRPS | SSRDSSGFQVM | 3.2 µM | 2/3 |
| EGDSLRYYYAN | HKPNRPY | SSRDSSGFQVF | 57 µM | 1/3 |
| EGDSLRFYRAN | SKNNRPS | SSRDSSGFQVF | 4.3 µM | 3/3 |
| EGDSLRYYYAN | MKNNRPS | VSRDSSGPQVF | not detected | 0/3 |
| EGDSLRYYYAN | FKNNRPS | STCDSSGFQVF | 4.5 µM | 1/3 |
| EGDSPRYYYAN | RKNNRPS | SARDSSGFQVF | 15 µM | 1/3 |
| EGTSLRYYYAN | DGNNRPS | SSRDSSGFQVF | 200 nM | 3/3 |
| EGDSLRYYYAN | PKSNPPS | SSRDSSGFQVF | 7.1 µM | 1/3 |
| EGDSLRYYYAN | YKNNRPS | SSRDSSGFIVF | not detected | 0/3 |
| EGDSLRYYYKN | SKDNRPS | SSRDSSGFQVF | 28 µM | 1/3 |
| EGDSLRYYYAN | SKNNRPS | SSRDSSGFQVF | 1.9 µM | 3/3 |
| EGDSLRVYYAN | MKNNRPS | SSRDSSGFQVF | 11 µM | 1/3 |
| EGDSLRYYQGN | KKNNRPS | SSRDSSGFQVF | 49 µM | 1/3 |
| EGDSLRQYYAN | TKNNRPS | SSSDSSGFQVF | not detected | 0/3 |
| EGDSLVYYYAN | TKNNRPS | SRRDSSGFQVF | 180 µM | 1/3 |
| EGDSLRYYYAN | TKNNRPS | ASRDSSGFQVA | 1.3 µM | 1/3 |
| EGDSLRYYYAN | AKNNYPS | SSRDSSGFQVF | 3.8 µM | 1/3 |
| EGDSLRYYVAN | PKNNRPS | SSRDSSSFQVF | 210 µM | 1/3 |
| EGDSLQYYYAN | HKNNRPS | SSRDSSGFQVF | not detected | 0/3 |
| EGDSLRYYYAN | VKNNRPS | CSDDSSGFQVF | 11 µM | 2/3 |
| EGDSLRYKYAN | SKNNRPS | SSRDSGGFQVF | 450 nM | 3/3 |
| EGDWLRYYYAN | HKNNRPS | SSRDSSGFEVF | 29 µM | 1/3 |
| EGDSLRYYYAN | SKNNRPS | SSVDSSGFQLF | 4.9 µM | 2/3 |
| EGDSLRYYYAN | SKNNRPS | SHRDSSGFQVF | 12 µM | 1/3 |
| EHDSLRYYYAN | QKNNRPS | SSRDSSGFQVF | 6.2 µM | 3/3 |

The first 11 variants above that were never detected:

{"CDR-L1": "EGPSLRYYYAN", "CDR-L2": "QKNNRPS", "CDR-L3": "SSLDSSGFQVF", "apparent Kd": "not detected", "detected": "0/3"}
{"CDR-L1": "EGDSLRYYYAN", "CDR-L2": "WKNNRPS", "CDR-L3": "SCRDSSGFEVF", "apparent Kd": "not detected", "detected": "0/3"}
{"CDR-L1": "EGDSLRYYYAN", "CDR-L2": "EKNNHPS", "CDR-L3": "KSRDSSGFQVF", "apparent Kd": "not detected", "detected": "0/3"}
{"CDR-L1": "EEDSLRYYYAN", "CDR-L2": "DKNNRPF", "CDR-L3": "SSRDSSGFQVF", "apparent Kd": "not detected", "detected": "0/3"}
{"CDR-L1": "EGDSLRYYYAK", "CDR-L2": "KKNNRPS", "CDR-L3": "SSRDSSGFQVF", "apparent Kd": "not detected", "detected": "0/3"}
{"CDR-L1": "EFDSLRYYYAN", "CDR-L2": "PKNNRPS", "CDR-L3": "SSRDSSGFQVF", "apparent Kd": "not detected", "detected": "0/3"}
{"CDR-L1": "EGDSLRYYYAN", "CDR-L2": "YKNNRPS", "CDR-L3": "SSRDSSGPQVF", "apparent Kd": "not detected", "detected": "0/3"}
{"CDR-L1": "EGDSLRYYYAN", "CDR-L2": "AKINRPS", "CDR-L3": "SSRDSKGFQVF", "apparent Kd": "not detected", "detected": "0/3"}
{"CDR-L1": "EGDSLRYYYAN", "CDR-L2": "YKNNYPS", "CDR-L3": "SYRDSSGFQVF", "apparent Kd": "not detected", "detected": "0/3"}
{"CDR-L1": "EGDSLHYYYAN", "CDR-L2": "WKNNRPS", "CDR-L3": "SSRDSSFFQVF", "apparent Kd": "not detected", "detected": "0/3"}
{"CDR-L1": "EGDSLRYYYAN", "CDR-L2": "CKNNRNS", "CDR-L3": "SSRKSSGFQVF", "apparent Kd": "not detected", "detected": "0/3"}

In this assay the parent's reference entry averaged 200 nM; its copy inside this library read 180 nM.
Background: pairings of library AAYL52 with three empty control strains gave a value in 28% of cases (median 8.2 µM, 5th percentile 800 nM). Values in that range, when seen in few replicates, are hard to tell from nonspecific mating.

Values reported by Engelhart et al. 2022, doi:10.1038/s41597-022-01779-4 (FLAb copy).